In assay [1] the target is Human Jak2 kinase domain (Homo sapiens (Human), UniProt O60674). In words: Jak2 Inhibition Assay (Omnia kinase assay). Type of assay: biochemical. The protocol:
The assays described in Examples C, D, E and F for the determination of JAK1, JAK2, JAK3 and Tyk2 kinase activity, respectively, utilized the Omnia® Kinase fluorescence peptide substrate-based technology (Invitrogen). […] The reactions were therefore read at excitation 360 nm and emission was measured at 485 nm every 50 seconds for 45 minutes using a PerkinElmer EnVision Multilabel Plate Reader.
The final buffer conditions for each of the JAK1, JAK2, JAK3 and Tyk2 assays were as follows: 25 mM HEPES, pH 7.4, 10 mM MgCl2, 0.01% Triton X-100 and 1 mM DTT.
Two-μL aliquots of these were transferred to a fresh plate for a ten-fold intermediate dilution with assay buffer. Five-μL aliquots of the diluted compounds were then transferred to 20-μL of assay mixtures described in Examples C, D, E and F for a final concentration of DMSO of 2%. […] For each plate, percent of control (POC) values were calculated for each well according to the following equation:
[formula] • where • Xmax=Average Uninhibited Controls • Xmin=Average Background IC50's were estimated from the POC's using a standard 4-parameter logistic model:
[formula] • where • A=Minimum Y (Bottom Asymptote) • B=Maximum Y (Top Asymptote) • C=EC50 • D=Slope Factor • X=Compound Concentration (nM) • Y=POC
The IC50 is defined as the concentration of inhibitor at which the POC equals 50 for the fitted curve.
Compounds of Formula I were screened for their ability to inhibit Jak2 using the general enzyme inhibition assay method, in which the assay mixture contained 500 μM ATP, 10 μM Omnia® Y7 peptide (Catalog # IVGN KNZ3071C, Invitrogen Corporation, Carlsbad, Calif.) and 4 nM Jak2 in a total volume of 20 μL. Human Jak2 kinase domain comprising amino acids 808-1132 was purchased from Invitrogen Corporation, Carlsbad, Calif. (catalog # IVGN PV4210).

Chains of the proteins cited; added tags and fusions are not shown. Residues count along the entry.
UniProt O60674, 808-1132: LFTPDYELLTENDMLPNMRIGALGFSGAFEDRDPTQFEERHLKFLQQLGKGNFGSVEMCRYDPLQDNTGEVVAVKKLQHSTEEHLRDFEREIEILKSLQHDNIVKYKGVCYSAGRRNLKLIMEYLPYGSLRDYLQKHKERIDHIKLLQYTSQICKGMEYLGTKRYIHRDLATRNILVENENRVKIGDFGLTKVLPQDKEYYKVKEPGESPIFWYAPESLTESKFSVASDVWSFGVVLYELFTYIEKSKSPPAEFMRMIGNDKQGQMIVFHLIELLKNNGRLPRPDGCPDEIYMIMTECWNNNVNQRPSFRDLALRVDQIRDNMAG
UniProt P04629, 440-796: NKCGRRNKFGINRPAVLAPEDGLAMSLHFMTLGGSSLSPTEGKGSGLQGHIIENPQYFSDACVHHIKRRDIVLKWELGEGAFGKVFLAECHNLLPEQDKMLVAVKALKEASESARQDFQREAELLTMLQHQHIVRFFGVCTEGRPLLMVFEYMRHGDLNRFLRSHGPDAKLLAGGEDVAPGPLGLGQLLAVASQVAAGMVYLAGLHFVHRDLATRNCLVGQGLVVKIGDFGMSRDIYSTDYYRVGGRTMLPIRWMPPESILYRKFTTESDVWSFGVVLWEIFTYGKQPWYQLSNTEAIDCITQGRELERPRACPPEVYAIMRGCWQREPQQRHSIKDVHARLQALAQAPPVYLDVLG

Assay [2] concerns the target TrkA (histidine-tagged recombinant human TrkA, cytoplasmic domain) (Homo sapiens (Human), UniProt P04629). Put plainly: TrkA ELISA Assay. Type of assay: biochemical. The procedure: An enzyme-linked immunosorbant assay (ELISA) was used to assess TrkA kinase activity in the presence of inhibitors. Immulon 4HBX 384-well microtiter plates (Thermo part #8755) were coated with a 0.025 mg/mL solution of poly (Glu, Ala, Tyr; 6:3:1; Sigma P3899). […] The reaction mixture was removed from the plate by washing with PBS containing 0.1% (v/v) Tween 20. The phosphorylated reaction product was detected using 0.2 μg/mL of a phosphotyrosine specific monoclonal antibody (clone PY20) conjugated to horseradish peroxidase in conjunction with the TMB Peroxidase Substrate System (KPL). After the addition of 1M phosphoric acid, the chromogenic substrate color intensity was quantitated via absorbance at 450 nm.

Setting [3] is: Table 1, 500 μM ATP, >1000 nM when >50% inhibition not observed at 1000 nM, read-out: Jak2 Enzyme IC50.
The mark [4] stands for this setting: Table 1, ELISA, 500 μM ATP, read-out: TrkA Enzyme IC50.
Setting [5] is: Table 2, 500 μM ATP, read-out: Jak2 IC50.

Like-named read-outs stand apart in the source and are kept apart here. Bounds are passed on as bounds.

Turning to `CC1(O)CCC(NC(=O)c2cnn3ccc(N4CCC[C@@H]4c4cc(F)ccc4F)nc23)CC1` (single isomer, unassigned) [Example 51], the IC50 in assay [1] (setting [3]) amounted to 186 nM.

Turning to `CC1(O)CCC(NC(=O)c2cnn3ccc(N4CCC[C@@H]4c4cc(F)ccc4F)nc23)CC1` (single isomer, unassigned; diastereomer 1) [Example 50], the IC50 in assay [1] (setting [3]) worked out at 418 nM.

For the compound `O=C(O)C1CCN(C(=O)c2cnn3ccc(N4CCC[C@@H]4c4cc(F)ccc4F)nc23)CC1` [Example 11, (R)-1-(5-(2-(2,5-difluorophenyl)pyrrolidin-1-yl)pyrazolo[1,5-a]pyrimidine-3-carbonyl)piperidine-4-carboxylic acid], the IC50 in assay [1] (read-out: Jak2 Enzyme IC50) was more than 1000 nM.

With `N#CCNC(=O)c1cnn2ccc(N3CCC[C@@H]3c3cc(F)ccc3F)nc12` [Example 39, (R)—N-(cyanomethyl)-5-(2-(2,5-difluorophenyl)pyrrolidin-1-yl)pyrazolo[1,5-a]pyrimidine-3-carboxamide], the IC50 in assay [1] (read-out: Jak2 Enzyme IC50) was more than 1000 nM.

For the compound `NS(=O)(=O)N1CCC(NC(=O)c2cnn3ccc(N4CCC[C@@H]4c4cc(F)ccc4F)nc23)CC1` [Example 45, (R)-5-(2-(2,5-difluorophenyl)pyrrolidin-1-yl)-N-(1-sulfamoylpiperidin-4-yl)pyrazolo[1,5-a]pyrimidine-3-carboxamide], the IC50 in assay [2] (setting [4]) worked out at 1.4 nM.

With `CS(=O)(=O)NCCNC(=O)c1cnn2ccc(N3CCC[C@@H]3c3cc(F)ccc3F)nc12` [Example 46, (R)-5-(2-(2,5-difluorophenyl)pyrrolidin-1-yl)-N-(2-(methylsulfonamido)ethyl)pyrazolo[1,5-a]pyrimidine-3-carboxamide], the IC50 in assay [1] (read-out: Jak2 Enzyme IC50) was more than 1000 nM.

In the case of `CC(CO)(CO)NC(=O)c1cnn2ccc(N3CCC[C@@H]3c3cc(F)ccc3F)nc12` [Example 60, (R)-5-(2-(2,5-difluorophenyl)pyrrolidin-1-yl)-N-(1,3-dihydroxy-2-methylpropan-2-yl)pyrazolo[1,5-a]pyrimidine-3-carboxamide], in assay [1] (setting [3]), the IC50 is more than 1000 nM.

As for `CC(C)(C#N)NC(=O)c1cnn2ccc(N3CCC[C@@H]3c3cncc(F)c3)nc12` [Example 69, (R)—N-(2-cyanopropan-2-yl)-5-(2-(5-fluoropyridin-3-yl)pyrrolidin-1-yl)pyrazolo[1,5-a]pyrimidine-3-carboxamide], the IC50 in assay [1] (read-out: Jak2 Enzyme IC50) was more than 1000 nM.

Turning to `O=C(NC1(C(=O)O)CC1)c1cnn2ccc(N3CCC[C@@H]3c3cc(F)ccc3F)nc12` [Example 84, (R)-1-(5-(2-(2,5-difluorophenyl)pyrrolidin-1-yl)pyrazolo[1,5-a]pyrimidine-3-carboxamido)cyclopropanecarboxylic acid], the IC50 in assay [1] (read-out: Jak2 Enzyme IC50) was more than 1000 nM.

Take `O=C(N[C@H]1CC[C@H](O)CC1)c1cnn2ccc(N3CCC[C@@H]3c3cncc(F)c3)nc12` [Example 99, 5-((R)-2-(5-fluoropyridin-3-yl)pyrrolidin-1-yl)-N-((trans)-4-hydroxycyclohexyl)pyrazolo[1,5-a]pyrimidine-3-carboxamide]: the IC50 in assay [1] (read-out: Jak2 Enzyme IC50) was more than 1000 nM; in assay [2] (setting [4]) it was 7 nM.

Turning to `O=C(N[C@H]1CC[C@@H](O)CC1)c1cnn2ccc(N3CCC[C@@H]3c3cncc(F)c3)nc12` [Example 100, 5-((R)-2-(5-fluoropyridin-3-yl)pyrrolidin-1-yl)-N-((cis)-4-hydroxycyclohexyl)pyrazolo[1,5-a]pyrimidine-3-carboxamide], the IC50 in assay [1] (read-out: Jak2 Enzyme IC50) was more than 1000 nM.

Regarding `COc1ncc(F)cc1[C@H]1CCCN1c1ccn2ncc(C(=O)N[C@H]3CC[C@H](O)CC3)c2n1` [Example 140, 5-((R)-2-(5-fluoro-2-methoxypyridin-3-yl)pyrrolidin-1-yl)-N-((trans)-4-hydroxycyclohexyl)pyrazolo[1,5-a]pyrimidine-3-carboxamide], the IC50 in assay [1] (setting [5]) turned out to be 76.7 nM; in assay [1] (read-out: Jak2 Enzyme IC50) it was 76.7 nM; in assay [2] (setting [4]) it was 0.9 nM; in assay [2] (Table 2, read-out: TrkA IC50), 0.9 nM.

For `Cc1ncc(F)cc1[C@H]1CCCN1c1ccn2ncc(C(=O)N[C@H]3CC[C@H](O)CC3)c2n1` [Example 194, 5-((R)-2-(5-fluoro-2-methylpyridin-3-yl)pyrrolidin-1-yl)-N-((trans)-4-hydroxycyclohexyl)pyrazolo[1,5-a]pyrimidine-3-carboxamide], the IC50 in assay [1] (setting [5]) and in assay [1] (read-out: Jak2 Enzyme IC50) was more than 1000 nM each time.

For the compound `Cc1ncc(F)cc1[C@H]1CCCN1c1ccn2ncc(C(=O)N[C@H]3CC[C@@H](O)CC3)c2n1` [Example 195, 5-((R)-2-(5-fluoro-2-methylpyridin-3-yl)pyrrolidin-1-yl)-N-((cis)-4-hydroxycyclohexyl)pyrazolo[1,5-a]pyrimidine-3-carboxamide], in assay [1] (read-out: Jak2 Enzyme IC50), the IC50 was more than 1000 nM.

Regarding `CCc1ncc(F)cc1[C@H]1CCCN1c1ccn2ncc(C(=O)N[C@H]3CC[C@H](O)CC3)c2n1` [Example 199, 5-((R)-2-(2-ethyl-5-fluoropyridin-3-yl)pyrrolidin-1-yl)-N-((trans)-4-hydroxycyclohexyl)pyrazolo[1,5-a]pyrimidine-3-carboxamide], the IC50 in assay [1] (read-out: Jak2 Enzyme IC50) was more than 1000 nM.

Consider `C[C@@H](NC(=O)c1cnn2ccc(N3[C@H](CO)CC[C@@H]3c3cncc(F)c3)nc12)C(F)(F)F` [Example 212, 5-((2R,5S)-2-(5-fluoropyridin-3-yl)-5-(hydroxymethyl)pyrrolidin-1-yl)-N—((R)-1,1,1-trifluoropropan-2-yl)pyrazolo[1,5-a]pyrimidine-3-carboxamide], for which, in assay [1] (read-out: Jak2 Enzyme IC50), the IC50 was more than 1000 nM.

Regarding `C[C@H](NC(=O)c1cnn2ccc(N3[C@H](CO)CC[C@@H]3c3cncc(F)c3)nc12)C(F)(F)F` [Example 213, 5-((2R,5S)-2-(5-fluoropyridin-3-yl)-5-(hydroxymethyl)pyrrolidin-1-yl)-N—((S)-1,1,1-trifluoropropan-2-yl)pyrazolo[1,5-a]pyrimidine-3-carboxamide], the IC50 in assay [1] (read-out: Jak2 Enzyme IC50) was more than 1000 nM.

On to `C[C@H](NC(=O)c1cnn2ccc(N3C[C@@H](O)C[C@@H]3c3cccc(F)c3)nc12)C(F)(F)F` [Example 216, 5-((2R,4S)-2-(3-fluorophenyl)-4-hydroxypyrrolidin-1-yl)-N—((S)-1,1,1-trifluoropropan-2-yl)pyrazolo[1,5-a]pyrimidine-3-carboxamide], for which, in assay [2] (setting [4]), the IC50 was 3.1 nM.

Take `C[C@@H](NC(=O)c1cnn2ccc(N3CCC[C@@H]3c3cc(F)cn(C)c3=O)nc12)C1CC1` [Example 235, N-((R)-1-cyclopropylethyl)-5-((R)-2-(5-fluoro-1-methyl-2-oxo-1,2-dihydropyridin-3-yl)pyrrolidin-1-yl)pyrazolo[1,5-a]pyrimidine-3-carboxamide]: the IC50 in assay [2] (setting [4]) is 2.8 nM.

Turning to `Cn1cc(F)cc([C@H]2CCCN2c2ccn3ncc(C(=O)N[C@H]4CC[C@H](O)CC4)c3n2)c1=O` [Example 238, 5-((R)-2-(5-fluoro-1-methyl-2-oxo-1,2-dihydropyridin-3-yl)pyrrolidin-1-yl)-N-((trans)-4-hydroxycyclohexyl)pyrazolo[1,5-a]pyrimidine-3-carboxamide], the figures for the IC50 in assay [1] (read-out: Jak2 Enzyme IC50) and in assay [2] (setting [4]) were 499 nM and 1.9 nM, respectively.

Values taken from patent US8791123B2, “Substituted pyrazolo[1,5-a]pyrimidine compounds as Trk kinase inhibitors” (Array Biopharma, Inc., priority 2009, dated 2014).
